Three molecules from patent US12544382B2, “2, 4, 6-tri-substituted pyrimidine compound as ATR kinase inhibitor” (BEIJING TIDE PHARMACEUTICAL CO., LTD., priority 2019, dated 2026) can be followed below.

Amino acid sequences for entries named in this document (tags omitted).
UniProt Q13535, whole entry: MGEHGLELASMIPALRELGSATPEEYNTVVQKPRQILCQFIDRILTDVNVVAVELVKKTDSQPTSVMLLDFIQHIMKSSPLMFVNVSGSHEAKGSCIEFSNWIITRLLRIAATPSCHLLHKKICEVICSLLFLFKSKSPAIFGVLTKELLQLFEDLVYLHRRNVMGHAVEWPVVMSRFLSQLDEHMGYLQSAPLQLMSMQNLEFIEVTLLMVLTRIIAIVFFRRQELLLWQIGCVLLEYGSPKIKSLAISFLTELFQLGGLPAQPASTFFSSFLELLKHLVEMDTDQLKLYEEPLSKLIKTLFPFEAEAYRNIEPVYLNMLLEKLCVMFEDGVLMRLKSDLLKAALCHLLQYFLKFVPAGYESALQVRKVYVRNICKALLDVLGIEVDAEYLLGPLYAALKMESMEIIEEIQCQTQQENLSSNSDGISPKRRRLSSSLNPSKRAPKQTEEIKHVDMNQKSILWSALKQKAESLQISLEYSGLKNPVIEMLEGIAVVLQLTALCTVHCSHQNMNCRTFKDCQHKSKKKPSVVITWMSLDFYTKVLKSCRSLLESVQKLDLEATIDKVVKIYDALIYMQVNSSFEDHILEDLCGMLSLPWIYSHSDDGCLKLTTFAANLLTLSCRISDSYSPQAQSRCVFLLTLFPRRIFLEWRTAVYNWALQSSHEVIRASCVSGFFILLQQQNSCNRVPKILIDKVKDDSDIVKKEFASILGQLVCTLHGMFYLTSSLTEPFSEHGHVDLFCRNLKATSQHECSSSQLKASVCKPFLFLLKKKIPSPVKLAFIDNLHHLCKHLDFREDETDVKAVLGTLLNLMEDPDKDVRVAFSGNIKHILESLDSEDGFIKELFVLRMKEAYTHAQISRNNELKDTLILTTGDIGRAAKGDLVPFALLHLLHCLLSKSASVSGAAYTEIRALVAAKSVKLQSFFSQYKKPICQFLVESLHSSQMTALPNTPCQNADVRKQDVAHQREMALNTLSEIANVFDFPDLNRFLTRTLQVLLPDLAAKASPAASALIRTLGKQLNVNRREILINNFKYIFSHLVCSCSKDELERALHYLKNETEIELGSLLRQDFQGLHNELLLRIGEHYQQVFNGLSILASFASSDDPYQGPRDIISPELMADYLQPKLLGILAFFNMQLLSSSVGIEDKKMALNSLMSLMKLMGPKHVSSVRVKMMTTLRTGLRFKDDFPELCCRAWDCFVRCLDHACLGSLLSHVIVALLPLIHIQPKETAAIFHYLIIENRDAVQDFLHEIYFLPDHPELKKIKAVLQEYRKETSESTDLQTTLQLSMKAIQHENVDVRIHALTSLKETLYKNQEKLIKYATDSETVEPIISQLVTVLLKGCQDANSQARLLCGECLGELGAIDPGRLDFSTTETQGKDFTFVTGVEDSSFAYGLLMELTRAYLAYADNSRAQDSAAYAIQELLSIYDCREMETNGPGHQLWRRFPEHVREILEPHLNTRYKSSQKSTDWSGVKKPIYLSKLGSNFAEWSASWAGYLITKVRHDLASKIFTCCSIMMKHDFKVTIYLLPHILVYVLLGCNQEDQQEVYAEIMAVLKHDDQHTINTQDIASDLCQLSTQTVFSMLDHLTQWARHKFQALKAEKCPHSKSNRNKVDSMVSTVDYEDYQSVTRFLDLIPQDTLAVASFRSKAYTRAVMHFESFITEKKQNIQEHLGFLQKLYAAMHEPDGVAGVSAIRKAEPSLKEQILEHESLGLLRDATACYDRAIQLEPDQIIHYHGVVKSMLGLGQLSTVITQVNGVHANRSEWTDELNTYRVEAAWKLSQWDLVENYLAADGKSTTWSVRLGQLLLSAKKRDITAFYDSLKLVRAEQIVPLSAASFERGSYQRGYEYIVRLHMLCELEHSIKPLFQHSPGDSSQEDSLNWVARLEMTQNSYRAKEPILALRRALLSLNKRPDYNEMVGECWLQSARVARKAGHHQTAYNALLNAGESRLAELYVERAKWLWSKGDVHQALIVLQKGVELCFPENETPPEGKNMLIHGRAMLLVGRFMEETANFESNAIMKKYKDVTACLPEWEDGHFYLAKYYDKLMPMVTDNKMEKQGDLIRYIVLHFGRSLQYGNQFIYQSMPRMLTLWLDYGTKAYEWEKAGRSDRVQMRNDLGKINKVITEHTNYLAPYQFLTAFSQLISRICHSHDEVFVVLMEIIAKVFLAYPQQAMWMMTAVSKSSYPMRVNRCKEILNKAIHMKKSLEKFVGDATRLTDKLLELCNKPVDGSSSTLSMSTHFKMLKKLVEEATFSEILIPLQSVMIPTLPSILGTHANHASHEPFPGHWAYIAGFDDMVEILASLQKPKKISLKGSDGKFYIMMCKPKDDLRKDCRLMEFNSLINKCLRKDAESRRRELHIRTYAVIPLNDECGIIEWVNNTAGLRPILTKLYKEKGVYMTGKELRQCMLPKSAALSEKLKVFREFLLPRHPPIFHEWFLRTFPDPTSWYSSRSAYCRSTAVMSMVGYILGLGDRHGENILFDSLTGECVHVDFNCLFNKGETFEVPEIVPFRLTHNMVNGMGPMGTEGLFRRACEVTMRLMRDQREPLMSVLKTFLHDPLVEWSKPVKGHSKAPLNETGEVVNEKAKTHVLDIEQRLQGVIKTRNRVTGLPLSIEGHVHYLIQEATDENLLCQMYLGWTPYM
UniProt Q8WXE1, whole entry partner: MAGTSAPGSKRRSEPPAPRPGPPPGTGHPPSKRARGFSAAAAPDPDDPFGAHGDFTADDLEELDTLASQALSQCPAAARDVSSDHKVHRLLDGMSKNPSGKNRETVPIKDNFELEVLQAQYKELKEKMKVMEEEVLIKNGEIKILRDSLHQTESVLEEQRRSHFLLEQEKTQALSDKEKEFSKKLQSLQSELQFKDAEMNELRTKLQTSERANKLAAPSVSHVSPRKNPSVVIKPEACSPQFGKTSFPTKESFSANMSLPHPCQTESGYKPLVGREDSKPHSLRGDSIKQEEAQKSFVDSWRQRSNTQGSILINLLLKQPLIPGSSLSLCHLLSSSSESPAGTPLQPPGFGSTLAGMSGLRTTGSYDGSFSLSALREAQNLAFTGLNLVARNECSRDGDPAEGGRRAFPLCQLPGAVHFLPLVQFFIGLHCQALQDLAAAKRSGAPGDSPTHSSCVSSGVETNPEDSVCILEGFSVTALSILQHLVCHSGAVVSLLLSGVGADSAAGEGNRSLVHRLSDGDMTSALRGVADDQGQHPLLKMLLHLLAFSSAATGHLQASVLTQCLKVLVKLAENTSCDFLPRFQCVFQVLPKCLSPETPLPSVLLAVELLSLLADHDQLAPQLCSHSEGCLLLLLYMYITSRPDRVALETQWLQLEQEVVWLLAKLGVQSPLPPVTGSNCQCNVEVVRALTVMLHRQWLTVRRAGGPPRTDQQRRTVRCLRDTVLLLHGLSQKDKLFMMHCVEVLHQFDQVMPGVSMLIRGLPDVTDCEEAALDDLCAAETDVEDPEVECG

One assay has as its system MV4-11 (leukemia) cells. Description: In vitro cell proliferation inhibition assay (CellTiter-Glo), MV4-11. It is filed as cell-based, human. Particulars: read-out: MV4-11/IC50, MV4-11 cells, 120 hours. On the procedure:
(§1) By detecting the effect of compound on cell activity in vitro in the tumor cell lines TOV21G (ovarian cancer) and MV4-11 (leukemia), the effect of compound inhibiting cell proliferation was studied in this assay.
(§2) TOV21G cells and MV4-11 cells were purchased from American Type Culture Collection (ATCC).
MV-4-11 cells were cultured in IMDM medium (containing 20% FBS), each well of a 96-well culture plate was inoculated with about 10000 cells, and treated with different concentrations (0-10 μM) of compounds to be tested in triplex. Blank wells (containing medium only) and control wells (inoculated with cells but not treated with drug) were set. Cells were cultured for 120 hours, 40 μL Cell Titer-Glo solution was added to each well, incubated with shaking for 20 min in the dark, 100 μL solution was transferred from each well to a 96-well white plate, and the luminescence value was read by Biotek Synergy H1 multifunctional microplate reader. Inhibition rate (%)=100%×(control well−test well)/(control well−blank well)
On the technique in general: Cellular ATP, detected with luciferase, serves as a proxy for viable cell number.

A further assay concerns the target ATR kinase (Homo sapiens (Human), UniProt Q13535). Kind of assay: ATR kinase activity assay (time-resolved fluorescence, p53 substrate phosphorylation). To be noted: read-out: ATR/IC50. On the procedure:
Biotinylated protein derived from p53 (Eurofins, art. No.: 14-952) was phosphorylated with ATR kinase. The amount of phosphorylated protein was determined by time-resolved fluorescence in this assay. The amount of phosphorylated protein was detected by anti-p53-phospho-(serine 15)-K-specific antibody (Cisbio, art. No.: 61GSTDLA) and d2 labeled anti-GST antibody (Cisbio, art. No. 61P08KAE). Before the experiment, the following working solution was prepared as required: 1× reaction buffer (20 mM HEPES PH8.0, 1% glycerol, 0.01% Brij-35), dilution buffer (20 mM HEPES PH8.0, 1% glycerol, 0.01% Brij-35, 5 mM DTT and 1% BSA), stop solution (20 mM HEPES PH8.0, 1% glycerol, 0.01% Brij-35, 250 mM EDTA), detection buffer (50 mM HEPES pH7.0, 150 mM NaCl, 267 mM KF, 0.1% sodium cholate, 0.01% Tween-20, 0.0125% sodium azide). […]
4× gradient dilution of compound solutions was prepared with 1× reaction buffer to obtain 9 compound solutions of different concentrations, and 2.5 μL 4× gradient dilution of compound solutions was added to a 384-well analysis plate (784075, Greiner). […] Finally, 5 μL test mixture (0.084 ng/μL Anti-phospho-p53(ser15)-K and 5 ng/μL Anti-GST-d2) was added to the 384 well analysis plate, incubated overnight at room temperature, and the fluorescence signal was detected with ENVISION (Perkinelmer) instrument (excitation wavelength: 320 nm, emission wavelength: 665 nm and 615 nm). […]

Assay [1] concerns TOV21G (ovarian cancer) cells. Kind of assay: In vitro cell proliferation inhibition assay (CellTiter-Glo), TOV21G. It is filed as cell-based, human. To be noted: read-out: TOV21G/IC50, 120 hours. On the procedure:
as §1, §2
TOV21G cells were cultured in MCDB105/M199 medium (containing 15% […]), and used for testing when the cell confluence reaches 85% or more. Each well of a 96-well culture plate was inoculated with about 1000 cells, cultured for 24 hours, and treated with different concentrations (0-10 μM) of compound solution to be tested in triplex. Blank wells (contains medium only) and control wells (seeded cells was not treated with drug) were set. Cells were cultured for 120 hours, 40 μL Cell Titer-Glo solution (Promega, #G7573) were added to each well, incubated with shaking for 20 min in the dark, 100 μL solution was transferred from each well to a 96-well white plate (Corning, #3917), and the luminescence value was read by Biotek Synergy H1 multifunctional microplate reader.

In the case of `CNc1nc2cc(F)ccc2n1-c1nc(-c2c(C)nn(C3CCNCC3)c2C)cc(N2CCOC[C@H]2C)n1`, the IC50 in the assay with MV4-11 (leukemia) cells was found to be 640 nM; at ATR kinase, 15 nM; in assay [1] it was 660 nM.
`CNc1nc2cc(F)ccc2n1-c1nc(-c2c(C)nn(C3CCN(C)CC3)c2C(F)(F)F)cc(N2CCOC[C@H]2C)n1`: the IC50 in the assay with MV4-11 (leukemia) cells amounted to 250 nM; on ATR kinase it was 17 nM; in assay [1] it was 770 nM.
Regarding `CNc1nc2cc(F)ccc2n1-c1nc(-c2c(C)nn(C3CCCNC3)c2C)cc(N2CCOC[C@H]2C)n1` (some centres unmarked), the IC50 in the assay on MV4-11 (leukemia) cells worked out at 840 nM; in assay [1], 740 nM.
